Laboratory results from PubChem BioAssay AID1415 (NMMLSC, 2008).
Only a part is listed here, and it is no random draw. The source made the active and inactive calls. Cut-off read from the data, not from the text of the source: active = binding response below about 49% or above about 150%; inactive = in between.

Sequences of proteins named here, by UniProt entry; tags and fusion partners are left off.
UniProt P09471, whole entry, looked up: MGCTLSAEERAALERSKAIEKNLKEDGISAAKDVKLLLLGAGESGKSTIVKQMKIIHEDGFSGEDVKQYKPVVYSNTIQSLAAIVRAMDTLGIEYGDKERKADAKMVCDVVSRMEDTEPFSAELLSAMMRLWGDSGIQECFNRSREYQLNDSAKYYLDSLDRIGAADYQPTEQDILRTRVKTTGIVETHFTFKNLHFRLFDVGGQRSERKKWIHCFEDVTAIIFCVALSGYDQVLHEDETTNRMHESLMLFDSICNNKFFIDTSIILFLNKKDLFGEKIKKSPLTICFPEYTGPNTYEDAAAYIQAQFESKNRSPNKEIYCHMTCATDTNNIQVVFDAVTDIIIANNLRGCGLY

Target: Guanine nucleotide-binding protein G(o) subunit alpha (Homo sapiens) (UniProt P09471)
Assay: modulators of RGS4 binding to Galphao, primary screen, biochemical, multiplexed bead flow cytometry (AID 1415);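 note: fluorescent Galphao activated with aluminum fluoride binding bead-coupled RGS4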
Details: at 10 µM, actives lie on both sides

SMILES | binding response (% of control)
O=P1(Nc2ccccn2)COc2ccccc2OC1 | inactive: 100%
CCOP(=O)(Nc1ccc(C)cn1)OCC | inactive: 96.3%
Clc1n[nH]nc1-c1nn[nH][15n]1 | inactive: 96.9%
CC(C)(C)C(=O)NC(Sc1ncccn1)C(Cl)(Cl)Cl (centres undefined) | inactive: 98.2%
Nc1cccc2c([As](=O)(O)O)cccc12 | active: 18.1%
Cc1ccc(NCCc2c([N+](=O)[O-])cc([N+](=O)[O-])cc2[N+](=O)[O-])cc1 | inactive: 93.7%
CCCOP(=S)(Nc1nc(N)cc(=O)[nH]1)OCCC | inactive: 99.6%
COc1cc(C2NCCC3(OCCO3)C2(C)C)cc(OC)c1OC (centres undefined) | inactive: 109%
CCOP(=O)(Nc1cccc2ccccc12)OCC | inactive: 101%
O=C(OC1CN2CCC1CC2)c1ccc(Cl)cc1 (centres undefined) | inactive: 96.8%
O=[As](O)(O)c1cccnc1 | inactive: 103%
COc1cc(C(=O)NCC2(N3CCOCC3)CCCCC2)cc(Cl)c1OC(C)C | inactive: 104%
Cc1cccc(OCC(=O)OC2CN3CCC2CC3)c1 (centres undefined) | inactive: 98.3%
O=[As](O)(c1cccc(O)c1)c1cccc(O)c1 | inactive: 105%
NC(=O)Nc1ccc([As](=O)(O)O)cc1 | inactive: 101%
CN(C(=O)Cc1ccccc1)[C@@H]1CC[C@]2(CCCO2)C[C@H]1N1CCCC1 | inactive: 77.8%
CCOP1(=S)c2c(C)nn(CCC#N)c2N=C(c2ccc(F)cc2)N1C (centres undefined) | inactive: 105%
O=[N+]([O-])c1ccc2c(c1)nnn2O | inactive: 117%
CCOP1(=S)c2c(C)nn(CCC#N)c2N=C(c2ccccc2F)N1C (centres undefined) | inactive: 102%
O=P(Nc1nccs1)(Oc1ccccc1)Oc1ccccc1 | inactive: 92.8%
O=P(Nc1nccs1)(c1ccccc1)c1nc2ccccc2s1 (centres undefined) | inactive: 100%
CS(=O)(=O)c1cc([N+](=O)[O-])c2no[n+]([O-])c2c1 | inactive: 87.5%
O=C(O)COc1ccc([As](=O)(O)O)cc1[N+](=O)[O-] | inactive: 99.8%
Nc1ccccc1[As](=O)(O)c1ccccc1 | inactive: 105%
